Experimental findings from PMC7614367, “Itraconazole inhibits endothelial cell migration by disrupting inositol pyrophosphate-dependent focal adhesion dynamics and cytoskeletal remodeling” (Biomedicine & Pharmacotherapy, 2023) are described below.

Amino acid sequences for entries named in this document (tags omitted). Residues count along the entry.
UniProt Q05397, 2-1052: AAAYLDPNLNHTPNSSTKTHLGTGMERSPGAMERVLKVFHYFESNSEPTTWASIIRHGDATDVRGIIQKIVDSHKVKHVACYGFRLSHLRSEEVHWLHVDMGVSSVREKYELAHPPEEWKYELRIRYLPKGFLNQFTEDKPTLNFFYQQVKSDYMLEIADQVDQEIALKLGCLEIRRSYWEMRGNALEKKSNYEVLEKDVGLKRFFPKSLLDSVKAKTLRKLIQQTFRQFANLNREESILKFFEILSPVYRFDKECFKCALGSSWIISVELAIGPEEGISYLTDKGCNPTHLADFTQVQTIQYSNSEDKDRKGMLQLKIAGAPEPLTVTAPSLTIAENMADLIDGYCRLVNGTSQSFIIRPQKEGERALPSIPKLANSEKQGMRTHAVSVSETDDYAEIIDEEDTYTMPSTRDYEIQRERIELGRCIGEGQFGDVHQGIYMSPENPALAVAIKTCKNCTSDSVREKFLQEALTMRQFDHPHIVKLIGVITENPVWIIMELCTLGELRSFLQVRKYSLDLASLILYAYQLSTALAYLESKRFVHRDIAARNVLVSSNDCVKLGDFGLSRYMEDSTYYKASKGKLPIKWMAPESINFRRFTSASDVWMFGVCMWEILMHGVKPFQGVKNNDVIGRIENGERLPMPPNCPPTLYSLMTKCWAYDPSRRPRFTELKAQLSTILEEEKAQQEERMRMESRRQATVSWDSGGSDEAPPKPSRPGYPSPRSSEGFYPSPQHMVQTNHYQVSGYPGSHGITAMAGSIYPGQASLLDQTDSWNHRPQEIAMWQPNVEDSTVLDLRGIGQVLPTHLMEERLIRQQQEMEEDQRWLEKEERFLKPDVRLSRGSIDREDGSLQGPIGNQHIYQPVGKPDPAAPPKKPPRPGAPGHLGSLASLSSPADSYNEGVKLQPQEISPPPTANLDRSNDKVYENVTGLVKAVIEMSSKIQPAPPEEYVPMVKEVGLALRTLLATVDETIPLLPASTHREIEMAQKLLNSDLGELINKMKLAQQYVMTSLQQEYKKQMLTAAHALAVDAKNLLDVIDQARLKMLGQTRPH

The target in this assay is T1, FAK (GST-FAK, flag-FAK) (Homo sapiens, UniProt Q05397).
T1 construct: gene PTK2; full-length FAK, GST- or flag-tagged, produced in HEK293 cells; tags kept; endogenous HUVEC protein also pulled down
Nature of the assay: bead pull-down of GST-FAK by flag-FAK, western blot. Type of assay: binding. The following applies: enhancer of FAK dimerization; FERM domain; compared with InsP6; 4 °C overnight. Background: A western blot detects proteins with antibodies after separation by electrophoresis.

Structures are written as SMILES.

For the compound `O=P(O)(O)O[C@H]1[C@@H](OP(=O)(O)O)[C@H](OP(=O)(O)O)[C@@H](OP(=O)(O)OP(=O)(O)O)[C@H](OP(=O)(O)O)[C@H]1OP(=O)(O)O` [5-InsP7, 5-diphosphoinositol 1,2,3,4,6-pentakisphosphate], the “binding between flag-FAK and GST-FAK” value was 5-InsP7, but not its nonhydrolyzable analogs 5-PCP and CF2, enhances the formation of FAK dimer.
